The values that follow come from patent publication US8729078B2, “Inhibitors of bruton's tyrosine kinase” (Hoffmann-La Roche Inc., priority 2011, dated 2014).

Chains of the proteins cited; added tags and fusions are not shown. Lines headed by an entry give the natural chain unless they say otherwise; changes in a name come on top.
UniProt Q06187: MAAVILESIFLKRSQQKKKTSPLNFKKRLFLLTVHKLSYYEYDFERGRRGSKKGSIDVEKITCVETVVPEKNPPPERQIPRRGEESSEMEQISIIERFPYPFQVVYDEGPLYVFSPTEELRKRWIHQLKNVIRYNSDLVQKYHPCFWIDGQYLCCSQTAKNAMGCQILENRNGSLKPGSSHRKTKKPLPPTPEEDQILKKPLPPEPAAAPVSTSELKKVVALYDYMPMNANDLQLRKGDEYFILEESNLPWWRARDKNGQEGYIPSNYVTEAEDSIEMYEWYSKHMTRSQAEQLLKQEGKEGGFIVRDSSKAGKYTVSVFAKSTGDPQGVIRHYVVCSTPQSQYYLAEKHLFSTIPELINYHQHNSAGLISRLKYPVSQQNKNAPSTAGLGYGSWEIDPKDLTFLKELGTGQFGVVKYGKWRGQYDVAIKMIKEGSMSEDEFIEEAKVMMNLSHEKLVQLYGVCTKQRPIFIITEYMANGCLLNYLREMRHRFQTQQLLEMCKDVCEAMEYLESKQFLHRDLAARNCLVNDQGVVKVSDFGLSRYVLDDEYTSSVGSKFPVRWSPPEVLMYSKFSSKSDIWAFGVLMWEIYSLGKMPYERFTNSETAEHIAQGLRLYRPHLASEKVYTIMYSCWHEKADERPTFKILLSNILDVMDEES

The experiment deals with Btk (Homo sapiens (Human), UniProt Q06187). Nature of the experiment: Bruton's Tyrosine Kinase (Btk) inhibition assay (FRET BTK). The experiment is classed as biochemical.
Take `CC(C)(C)c1cc(F)c2c(=O)n(-c3cccc(-n4cc(C(N)=O)c5ccccc54)c3CO)ncc2c1` [Compound I-17, 1-[3-(6-tert-Butyl-8-fluoro-1-oxo-1H-phthalazin-2-yl)-2-hydroxymethyl-phenyl]-1H-indole-3-carboxylic acid amide]: it took 4.1 nM to reach half-maximal inhibition (IC50).

Compound `CC(C)(C)c1cc(F)c2c(=O)n(-c3cccc(-n4cc(C(N)=O)c(Nc5ccc(C(C)(C)O)cc5)n4)c3CO)ncc2c1` [Compound I-22, 1-[3-(6-tert-Butyl-8-fluoro-1-oxo-1H-phthalazin-2-yl)-2-hydroxymethyl-phenyl]-3-[4-(1-hydroxy-1-methyl-ethyl)-phenylamino]-1H-pyrazole-4-carboxylic acid amide] displayed a half-maximal inhibitory concentration (IC50) of 91.5 nM. With `CC(C)(C)c1ccc2c(=O)n(-c3cccc(-n4cc(C(N)=O)c(Nc5ccc(F)cn5)n4)c3CO)ncc2c1` [Compound I-35, 1-[3-(6-tert-Butyl-1-oxo-1H-phthalazin-2-yl)-2-hydroxymethyl-phenyl]-3-(5-fluoro-pyridin-2-ylamino)-1H-pyrazole-4-carboxylic acid amide], the IC50 is 0.56 nM.
